Molecular target: Opioid receptors; mu & kappa (Homo sapiens) (UniProt P41145+P35372)
Test: Ratio of Ki at mu-opioid receptor to Ki at kappa opioid receptor
Conditions: Cavia porcellus

With `CN(C(=O)Cc1cccc2sccc12)[C@@H]1CCCC[C@H]1N1CCCC1` the Ratio was 0.59.
